Here are results for 4 molecules from patent publication US9242969B2, “Biaryl amide compounds as kinase inhibitors” (Novartis AG, priority 2013, dated 2016).

Protein sequences, listed by entry. Tags and fused reporters are not part of them. Residues count along the entry.
UniProt P04049, 325-648 Y340E/Y341E: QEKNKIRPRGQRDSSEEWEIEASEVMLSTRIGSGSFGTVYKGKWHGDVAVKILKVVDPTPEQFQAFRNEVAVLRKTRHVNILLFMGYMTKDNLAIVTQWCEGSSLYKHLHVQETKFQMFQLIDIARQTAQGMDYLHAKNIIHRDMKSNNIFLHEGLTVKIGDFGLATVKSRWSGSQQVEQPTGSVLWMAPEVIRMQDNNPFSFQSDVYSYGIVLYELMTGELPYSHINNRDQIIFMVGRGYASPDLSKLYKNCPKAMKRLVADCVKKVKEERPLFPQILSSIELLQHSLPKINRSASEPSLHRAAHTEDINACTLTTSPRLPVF

This assay deals with C-Raf TR (Δ1-324 deletion mutant with activating mutations) (Homo sapiens (Human), UniProt P04049, Y340E/Y341E). Format: biochemical. To be noted: truncated C-Raf (Δ1-324), ATP 3 uM, 10 nM biotinylated MEK1 kinase dead.
For orientation: IC50 means the concentration at which inhibition is half-maximal. Low values mean inhibition by little substance, high ones a need for much substance. For the molecule `Cc1ccc(NC(=O)c2ccnc(C(C)(C)C#N)c2)cc1-c1cc(N2CCOCC2)ncn1` [Example 2, 2-(2-cyanopropan-2-yl)-N-(4-methyl-3-(6-morpholinopyrimidin-4-yl)phenyl)isonicotinamide], the half-inhibitory concentration (IC50) was determined as 2950 pM.

`Cc1ccc(NC(=O)c2cccc(C(F)(F)F)c2)cc1-c1nc(N2CCOCC2)cc(N2CCOCC2)n1` [Example 13, N-(3-(4,6-dimorpholinopyrimidin-2-yl)-4-methylphenyl)-3-(trifluoromethyl)benzamide] yielded an IC50 of 533 pM.

Molecule `Cc1ccc(NC(=O)c2cccc(C(F)(F)F)c2)cc1-c1cc(N2CCS(=O)(=O)CC2)nc(N2CCOCC2)n1` [Example 6, N-(3-(6-(1,1-dioxidothiomorpholino)-2-morpholinopyrimidin-4-yl)-4-methylphenyl)-3-(trifluoromethyl)benzamide] registered an IC50 of 408 pM. The IC50 values of the last two molecules are within 1.5-fold of each other.

Turning to `Cc1ccc(NC(=O)c2cccc(C(F)(F)F)c2)cc1-c1cc(N2CCOCC2)nc(N2CCOCC2)n1` [Example 10, N-(3-(2,6-dimorpholinopyrimidin-4-yl)-4-methylphenyl)-3-(trifluoromethyl)benzamide], the IC50 is 118 pM. This IC50 lies about 3.5-fold lower than the previous one.
